Results published in PubChem BioAssay AID624287 (National Center for Advancing Translational Sciences (NCATS), 2012).
The entries are a selection whose mix differs from that of the whole data set. Some of these compounds have results that are not shown, active ones among them. Results filed as inconclusive are left out. Calls of active or inactive are those of the source. Calls come from the whole dose curve; as a rule, active = well fitted activation curve with a large enough effect; inconclusive = small, poorly fitted or top-dose-only effect, or another doubt; inactive = no such curve, though single readings can be large or run the other way; cell line not stated here.

Assay: qHTS for Agonist of gsp, the Etiologic Mutation Responsible for Fibrous Dysplasia/McCune-Albright Syndrome: qHTS;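 note: phosphodiesterase inhibitor Ro 20-1724 added with compounds to block cAMP breakdown; nearly all actives have a fitted effect of over 60% in size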
Settings: gsp mutant cells, cAMP HTRF, 30 min; at 76.9 µM (top of the series) unless noted

| SMILES | activation (cAMP increase) |
| --- | --- |
| CN(C)C1(CNC(=O)c2ccc(Br)cc2)CCCCC1 | inactive: -16.2% [at 15.4 µM] |
| COc1cc(C(=O)NCC2(N(C)C)CCCCC2)c([N+](=O)[O-])cc1OC | inactive: -23% |
| COc1ccc(Cl)cc1C(=O)NCC1(N(C)C)CCCCC1 | inactive: -5.32% [at 15.4 µM] |
| COc1cccc(C(=O)NCC2(N3CCCCC3)CCCCC2)c1 | inactive: -2.19% [at 15.4 µM] |
| O=C(NCC1(N2CCCCC2)CCCCC1)c1cccc(Cl)c1 | inactive: 12.6% |
| O=C(OC1CN2CCC1CC2)C(CO)(c1ccccc1)c1ccccc1 (stereo not given) | inactive: -71.7% |
| C=C(C)C#CC(O)(C(=O)OC1CCN(C)CC1)c1ccccc1 (stereo not given) | inactive: -12.3% |
| COc1ccc(Br)c(C(=O)NCC2(N3CCCCC3)CCCCC2)c1 | inactive: -2.39% |
| O=C(OCCN1CCCC1)C(O)(c1ccccc1)c1ccccc1 | inactive: 23.3% [at 15.4 µM] |
| CC(C)Oc1ccc(C(=O)NCC2(N(C)C)CCCCC2)cc1 | inactive: 17.7% [at 15.4 µM] |
| CN(C)c1cccc(C(=O)NCC2(N(C)C)CCCCC2)c1 | inactive: -11.6% |
| O=C(NCC1(N2CCCCC2)CCCCC1)c1cc([N+](=O)[O-])ccc1Cl | inactive: 3.4% [at 15.4 µM] |
| COc1cc(SC)ccc1C(=O)NCC1(N(C)C)CCCCC1 | inactive: -12.8% |
| CCN(CC)CC(C)C(C)OC(=O)C(O)(c1ccccc1)c1ccccc1 (stereo not given) | inactive: -2% [at 15.4 µM] |
| CC(C)N1C(=O)CC2(CCN(CCOC(=O)C(O)(c3ccccc3)c3ccccc3)CC2)C1=O | inactive: 0.127% |
| Cc1ccc(C(=O)NCC2(N3CCCCC3)CCCCC2)cc1 | inactive: -11% [at 15.4 µM] |
| CN(C)C1CCCC1OC(=O)C(O)(c1ccccc1)c1ccccc1 (stereo not given) | inactive: 11.5% |
| CN(C)c1ccc(C(=O)NCC2(N(C)C)CCCCC2)cc1 | inactive: 5.87% [at 15.4 µM] |
| Cc1ccccc1C(=O)NCC1(N2CCCCC2)CCCCC1 | inactive: -80% |
| O=C(NCC1(N2CCCCC2)CCCCC1)c1cc(F)c(F)cc1Cl | inactive: 19.7% [at 15.4 µM] |
| C=CCN1CCN(CCOC(=O)C(O)(c2ccccc2)c2ccccc2)CC1 | inactive: 4.56% |
| COc1ccc(C(=O)NCC2(N(C)C)CCCCC2)cc1 | inactive: 5.71% |
| O=C(NCC1(N2CCCCC2)CCCCC1)c1cccc(Br)c1 | inactive: -1.88% |
| Cc1cc(C(=O)NCC2(N3CCCCC3)CCCCC2)ccc1[N+](=O)[O-] | inactive: 20% |
| CCN1CCCC(OC(=O)C2(O)c3ccccc3C=Cc3ccccc32)C1 (stereo not given) | inactive: 18.3% |
